The record followed here is PMC10089971 (British journal of pharmacology, 2023).

The conditions of this series: CPT-11 co-administration.

Where a name gives a salt, the structure may show the parent alone.

`CCc1c2c(nc3ccc(OC(=O)N4CCC(N5CCCCC5)CC4)cc13)-c1cc3c(c(=O)n1C2)COC(=O)[C@]3(O)CC` [CPT-11, Irinotecan hydrochloride]: the morphine metabolism entry was “did not appear to alter morphine metabolism”.
